Laboratory results: patent US20160355588A1 (published 2016)

Tests used:
v6475 = assay: whole cell binding
v1653 = assay: whole cell binding

Kd (v6475): ~30 nM
Kd (v1653): ~30 nM
B1: Jurkat T cells (receptor)
chain: DGNEEMGGITQTPYKVSISGTTVILTCPQYPGSEILWQHNDKNIGGDEDDKNIGSDEDHLSLKEFSELEQSGYYVCYPRGSKPEDANFYLYLRARVCENCMEMDVMSVATIVIVDICITGGLLLLVYYWSKNRKAKAKPVTRGAGAGGRQRGQNKERPPPVPNPDYEPIRKGQRDLYSGLNQRRI
